Earlier results on one compound are cited in patent US9365016B2, “Fluorine-containing (meth) acrylic (co) polymer and molded body films thereof” (KANEKA CORPORATION, priority 2010, dated 2016).

Each structure is given as a SMILES string. Where only a bound is given, the exact number is not on record here.

For data set [1] the following is noted: at 25 C.

Consider `CCCC(C)(C)OOC(=O)C(C)(C)C`, for which the “10-hour half-life period temperature” value is recorded as 53 C. Also, the solubility into water in data set [1] is given as not above 0.1 % by weight.
